This is a selection; strong and weak results do not stand in their true shares. Some salts and complexes are drawn in separate pieces, as the source files them; their charges need not balance. Active and inactive are the calls of the source.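 Rule for the calls: active = mean replicate inhibition of at least 30%, or all replicates individually reaching that 30% level; inactive = mean below 30% and not every replicate reaching it.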

Sequences of proteins named here, by UniProt entry; tags and fusion partners are left off.
UniProt Q9NZ08, whole entry: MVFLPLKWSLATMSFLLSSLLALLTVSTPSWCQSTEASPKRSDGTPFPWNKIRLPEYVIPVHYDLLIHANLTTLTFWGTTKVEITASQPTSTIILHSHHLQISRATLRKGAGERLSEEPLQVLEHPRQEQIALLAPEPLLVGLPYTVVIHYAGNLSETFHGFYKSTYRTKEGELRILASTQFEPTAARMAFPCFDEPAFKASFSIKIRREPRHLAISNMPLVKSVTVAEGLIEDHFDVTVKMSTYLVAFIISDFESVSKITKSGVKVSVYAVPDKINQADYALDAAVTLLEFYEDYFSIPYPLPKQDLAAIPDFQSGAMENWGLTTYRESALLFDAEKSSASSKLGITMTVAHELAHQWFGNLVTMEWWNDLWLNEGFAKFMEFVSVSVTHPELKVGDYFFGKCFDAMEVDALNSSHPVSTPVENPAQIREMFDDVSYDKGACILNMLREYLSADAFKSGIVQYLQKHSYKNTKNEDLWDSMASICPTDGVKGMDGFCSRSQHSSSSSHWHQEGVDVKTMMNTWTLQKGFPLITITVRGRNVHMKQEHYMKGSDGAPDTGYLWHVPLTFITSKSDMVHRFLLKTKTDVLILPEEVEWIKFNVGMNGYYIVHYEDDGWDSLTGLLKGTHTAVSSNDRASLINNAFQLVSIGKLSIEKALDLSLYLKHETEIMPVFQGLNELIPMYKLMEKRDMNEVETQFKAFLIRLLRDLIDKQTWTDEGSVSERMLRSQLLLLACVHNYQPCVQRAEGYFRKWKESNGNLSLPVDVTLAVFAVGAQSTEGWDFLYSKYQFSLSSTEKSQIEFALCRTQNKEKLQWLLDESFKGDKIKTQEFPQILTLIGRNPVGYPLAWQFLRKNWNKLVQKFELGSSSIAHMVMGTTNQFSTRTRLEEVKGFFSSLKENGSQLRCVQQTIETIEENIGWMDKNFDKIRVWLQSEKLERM

Usually inhibition stands for the drop in the measured response relative to a control, in per cent.

The assay concerns the target Endoplasmic reticulum aminopeptidase 1 (Homo sapiens) (UniProt Q9NZ08). In words: inhibition of ERAP1 peptide trimming enzyme – biochemical, single point, plate reader, primary screen (AID 652197).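 Note: 0% = neutral control wells and 100% = L-leucinethiol positive control wells.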 The settings on record: recombinant ERAP1, Leu-AMC fluorescence, 60 min; at 10.7 µM; active compounds read high.
For `O=[N+]([O-])c1cc([N+](=O)[O-])c(C(F)(F)F)c([N+](=O)[O-])c1O`, the inhibition is inactive: 3.75%. In the case of `CP(=O)(Nc1ccc(SC(F)(F)F)cc1)Oc1ccc(F)cc1` (stereo not given) it was inactive: 16.5%; in that of `CCOP(=O)(CC)OCC`, inactive: 3.53%; in that of `O=[N+]([O-])c1ccc(OP2(=O)COCCO2)cc1` (stereo not given), inactive: 2.43%. In the case of `Cc1cc(-c2cccc3ccccc23)c(C)cn1.O=[N+]([O-])c1cc([N+](=O)[O-])c(O)c([N+](=O)[O-])c1` it was inactive: 0.709%. Regarding `O=[N+]([O-])c1cc([N+](=O)[O-])c(NCC2CCS(=O)(=O)C2)c([N+](=O)[O-])c1` (stereo not given), the inhibition was inactive: 6.43%. Then `Cc1c(C(c2ccc3c(c2)OCO3)c2c(C)n(C)n(-c3ccccc3)c2=O)c(=O)n(-c2ccccc2)n1C.O=[N+]([O-])c1cc([N+](=O)[O-])c(O)c([N+](=O)[O-])c1`, with inactive: 8.76%; and `COc1ccc(NP(C)(=O)Oc2ccccc2OC)cc1` (stereo not given), with inactive: 4.5%; and `Cc1c([N+](=O)[O-])cc([N+](=O)[O-])c(Br)c1[N+](=O)[O-]`, with inactive: 6.1%.

With `O=[N+]([O-])c1cc([N+](=O)[O-])c(OC2CCCCC2O)c([N+](=O)[O-])c1` (stereo not given), the inhibition is inactive: 1.28%.

Consider `CCN(CC)CCCNc1ccccc1[N+](=O)[O-].O=[N+]([O-])c1cc([N+](=O)[O-])c(O)c([N+](=O)[O-])c1`, for which the inhibition is inactive: 7.52%.

With `COc1ccc(OP(C)(=O)Nc2ccc(SC(F)(F)F)cc2)cc1` (stereo not given), the inhibition was inactive: 0.603%. Then `O=C(OC1CN2CCC1CC2)c1ccc([N+](=O)[O-])cc1` (stereo not given), with inactive: 3.31%; and `O=C(OCCN1CCN(CCOCc2ccccc2)CC1)C(O)(c1ccccc1)c1ccccc1`, with inactive: 1.53%; and `COc1ccc2c(c1O)-c1c(O)c(OC)cc3c1[C@H](C2)[N+](C)(C)CC3.O=[N+]([O-])c1cc([N+](=O)[O-])c([O-])c([N+](=O)[O-])c1[O-]`, with inactive: 2.11%. Then `O=[N+]([O-])c1cc([N+](=O)[O-])c(Nc2ccc(Cl)cc2)c([N+](=O)[O-])c1`, with inactive: 2.49%; and `CP(=O)(Nc1ccccc1F)Oc1ccccc1` (stereo not given), with inactive: -0.665%; and `CC(C)c1ccc(OP(C)(=O)Nc2ccc(SC(F)(F)F)cc2)cc1` (stereo not given), with inactive: 5.69%. Then `O=[N+]([O-])c1cc([N+](=O)[O-])c(Nc2ccccn2)c([N+](=O)[O-])c1`, with inactive: 1.65%; and `CP(=O)(OCCOc1ccccc1)OCCOc1ccccc1`, with inactive: -5.3%; and `CP(=O)(Nc1ccc(Cl)cc1Cl)Oc1ccccc1` (stereo not given), with inactive: 0.477%. With `CCCCCCCCCCCCCCCC1C[N+](C)(C)CCOP(C)(=O)O1` (stereo not given), the inhibition was active: 69%. In the case of `Cc1cc(C)cc(OP(C)(=O)Nc2cccc(C(F)(F)F)c2)c1` (stereo not given) it was inactive: -2.44%; in that of `O=C1C(O)=C([N+](=O)[O-])C(=O)C(O)=C1[N+](=O)[O-]`, inactive: -3.64%; in that of `Nc1ccc2c(ccc3cccnc32)n1.O=[N+]([O-])c1cc([N+](=O)[O-])c(O)c([N+](=O)[O-])c1`, inactive: 2.01%. Turning to `CCOC(=O)c1ccc(NP(C)(=O)Oc2ccc(Cl)cc2)cc1` (stereo not given), the inhibition is inactive: -0.391%. In the case of `COc1ccccc1OP(C)(=O)Nc1ccccc1Br` (stereo not given) it was inactive: -3.21%. Then `CN(C)C(=O)c1c([N+](=O)[O-])cc([N+](=O)[O-])cc1[N+](=O)[O-]`, with inactive: -0.087%; and `O=C(OCCCN1CCCC1)C(O)(c1ccccc1)C1CCCCC1` (stereo not given), with inactive: 4.39%. With `CCc1ccc(OP(C)(=O)Nc2cccnc2)cc1` (stereo not given), the inhibition is inactive: -4.77%. Take `CCOC(=O)c1ccc(NP(C)(=O)Oc2ccc(OC)cc2)cc1` (stereo not given): the inhibition was inactive: 2.21%. Then `O=[N+]([O-])c1cc([N+](=O)[O-])c(O)c([N+](=O)[O-])c1.c1ccc(Oc2ccncc2)cc1`, with inactive: 5.51%. Take `CP(=O)(Nc1ccccn1)Oc1ccc(Cl)cc1` (stereo not given): the inhibition was inactive: 0.105%. Then `CP(=O)(Oc1ccccc1)OC(c1ccccc1)C(F)(F)F` (stereo not given), with inactive: 6.88%; and `CP(=O)(Nc1ccc(SC(F)(F)F)cc1)Oc1ccc(Cl)cc1` (stereo not given), with inactive: -0.09%. In the case of `CCc1ccc(OP(C)(=O)N2CCN(c3ccc([N+](=O)[O-])cc3)CC2)cc1` (stereo not given) it was inactive: 2.8%; in that of `CP(=O)(NC(=O)Nc1ccccc1)Oc1ccccc1` (stereo not given), inactive: -2.29%.

For the molecule `CP(=O)(Nc1ccccc1Br)Oc1ccccc1` (stereo not given), the inhibition was inactive: 1.97%. Regarding `COc1ccccc1OP(C)(=O)Nc1ccccc1` (stereo not given), the inhibition is inactive: 0.094%.

In the case of `Cc1cc(C)cc(OP(C)(N)=O)c1` (stereo not given), the inhibition was inactive: 0.097%. Then `COc1ccccc1OP(C)(=O)Nc1cc(Cl)ccc1C` (stereo not given), with inactive: -0.023%; and `O=[N+]([O-])c1cc([N+](=O)[O-])c(Nc2cccnc2)c([N+](=O)[O-])c1`, with inactive: 1.27%; and `O=[N+]([O-])c1ccc2c(c1)C=Nc1ccccc1O2`, with inactive: 0.298%. In the case of `Cc1cccc(C)c1OP(C)(N)=O` (stereo not given) it was inactive: -1.12%; in that of `CC(C)(C)c1ccc(OP(C)(=O)Nc2ccc(SC(F)(F)F)cc2)cc1` (stereo not given), inactive: -0.759%. Then `COc1ccccc1-c1ccccn1.O=[N+]([O-])c1cc([N+](=O)[O-])c(O)c([N+](=O)[O-])c1`, with inactive: 11.5%; and `CP(=O)(Nc1cccc(Br)c1)Oc1ccccc1` (stereo not given), with inactive: -3.15%; and `Cc1cc(C)cc(OP(C)(=O)Nc2ccccn2)c1` (stereo not given), with inactive: -0.669%. Consider `COc1ccccc1OP(C)(=O)Nc1cccc(Br)c1` (stereo not given), for which the inhibition is inactive: -4.47%. As to `CCOC(=O)c1ccc(NP(C)(=O)Oc2cc(C)cc(C)c2)cc1` (stereo not given), the inhibition was inactive: -0.056%. Then `Cc1cc(C)cc(OP(C)(=O)Nc2ccc(C)cc2C)c1` (stereo not given), with inactive: 0.199%; and `O=C(O)c1cccc(Nc2c([N+](=O)[O-])cc([N+](=O)[O-])cc2[N+](=O)[O-])c1`, with inactive: 2.65%.

For `CN1CCCCC1COC(=O)C1(O)c2ccccc2CCc2ccccc21` (stereo not given), the inhibition was inactive: 0.355%. In the case of `COc1ccc(-c2ccccn2)cc1.O=[N+]([O-])c1cc([N+](=O)[O-])c(O)c([N+](=O)[O-])c1`, the inhibition was inactive: 5.88%.

Regarding `CCCOc1ccc(NP(C)(=O)Oc2ccc(Cl)cc2)cc1` (stereo not given), the inhibition was inactive: 2.14%. In the case of `CCOC(=O)C(CC)C1=NC(C)(C)Cc2ccccc21.O=[N+]([O-])c1cc([N+](=O)[O-])c(O)c([N+](=O)[O-])c1` (stereo not given) it was inactive: 7.65%; in that of `O=[N+]([O-])c1cc([N+](=O)[O-])c(Nc2nnnn2CCO)c([N+](=O)[O-])c1`, inactive: 5.86%; in that of `O=[N+]([O-])c1cc([N+](=O)[O-])c(-c2cnn(-c3ccccc3)c2)c([N+](=O)[O-])c1`, inactive: -0.144%. In the case of `O=[N+]([O-])c1cc([N+](=O)[O-])c(-n2nnc3ccccc32)c([N+](=O)[O-])c1` it was inactive: 2.67%; in that of `CN(Cc1cccnc1)C(=O)COc1ccc(Cl)c(Cl)c1.O=[N+]([O-])c1cc([N+](=O)[O-])c(O)c([N+](=O)[O-])c1`, inactive: 1.54%.

Source of the values: PubChem BioAssay AID652197 (Broad Institute, 2013).
